{"sequences": {"note": "Sequences of proteins named here, by UniProt entry; tags and fusion partners are left off.", "UniProt P43116, whole entry": "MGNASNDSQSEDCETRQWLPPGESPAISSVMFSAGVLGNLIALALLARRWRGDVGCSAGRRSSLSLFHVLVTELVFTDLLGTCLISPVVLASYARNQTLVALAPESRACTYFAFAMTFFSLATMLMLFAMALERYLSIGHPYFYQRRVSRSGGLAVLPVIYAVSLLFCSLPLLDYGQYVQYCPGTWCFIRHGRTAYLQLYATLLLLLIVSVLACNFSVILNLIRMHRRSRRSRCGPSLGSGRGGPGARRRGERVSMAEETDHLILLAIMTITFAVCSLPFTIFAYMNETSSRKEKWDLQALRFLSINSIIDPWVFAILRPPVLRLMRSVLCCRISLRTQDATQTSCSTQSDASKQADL"}, "source": "PubChem BioAssay AID1422", "about": "(Emory University Molecular Libraries Screening Center, 2008)", "note": "The list shows a part of the results, in another mix than the full data. Activity calls are given as the source filed them.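 How the source made its calls: active means percent inhibition above 40 after rounding to a whole number; inactive means the rest.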"}
{"target": "Prostaglandin E2 receptor EP2 subtype (Homo sapiens) (UniProt P43116)", "test": "human EP2 receptor antagonists, primary screen, TR-FRET cAMP, C6 glioma cells (AID 1422);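 further: rat C6 glioma host cells with rolipram phosphodiesterase inhibitor present; the protocol text gives 20 µM as final concentration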", "conditions": "C6 glioma cells expressing human EP2, cAMP TR-FRET; at 25 µM; active compounds read high; cells stimulated with saturating PGE2"}
{"smiles": "CN(CCCl)CCCl", "inhibition": "inactive: 14.4%"}
